The target of test [1] is T1, human 5-HT2C receptor (Homo sapiens, UniProt P28335). As to the kind of experiment: cell-based.
The target of test [2] is T1, human 5-HT2C receptor. Put plainly: biochemical.

By UniProt entry, the sequences of proteins in these tests, tags left out. Residues count along the entry.
UniProt P28335, 33-458: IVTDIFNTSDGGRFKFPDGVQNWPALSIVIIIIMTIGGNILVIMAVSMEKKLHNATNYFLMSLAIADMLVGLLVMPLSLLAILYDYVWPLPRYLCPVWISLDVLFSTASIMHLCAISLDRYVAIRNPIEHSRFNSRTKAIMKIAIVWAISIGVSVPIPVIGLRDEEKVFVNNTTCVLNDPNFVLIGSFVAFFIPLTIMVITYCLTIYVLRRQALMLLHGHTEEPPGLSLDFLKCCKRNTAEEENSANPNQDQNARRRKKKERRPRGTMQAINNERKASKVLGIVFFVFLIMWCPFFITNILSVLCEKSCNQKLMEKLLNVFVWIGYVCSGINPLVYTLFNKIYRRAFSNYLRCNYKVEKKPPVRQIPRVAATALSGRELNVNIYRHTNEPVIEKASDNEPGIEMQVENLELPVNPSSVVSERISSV

We go through 1 compound from PMC3945162 (Psychopharmacology, 2013).

Molecules are shown by their SMILES.

Broadly, the EC50 is the concentration giving half of the maximal effect. In general, Ki refers to a dissociation constant, usually derived from enzyme kinetics or from competition with a known ligand. Higher therefore signals lower affinity. At human 5-HT2C receptor [1], `CNC(C)Cc1ccc2c(c1)OCO2` (centres unmarked) [MDMA, 3,4-methylenedioxymethamphetamine, reference compound] yielded an EC50 of 9.1 ± 1.5 µM. At human 5-HT2C receptor [2], the affinity corresponds to a Ki of 9.6 ± 2.4 µM.
